Experiment: Vasodilatory effect in pig pulmonary artery assessed as inhibition of PGF2-alpha-induced contraction
Assay type: functional, tissue-based
Conditions: Sus scrofa
Method in brief: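 Porcine lungs from slaughterhouse; small pulmonary artery branches cut into rings (2–3 mm long, 1.5–2 mm diameter), tension measured in organ baths. Rings precontracted with PGF2α; test compounds added cumulatively at contraction plateau (up to 1 mM), DMSO as solvent. Endothelium checked by 10 nM bradykinin relaxation; denuded rings by gentle rubbing, pretreated with 0.2 mM L-NAME. Potency expressed as pD2.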

SMILES: O=[N+]([O-])OCCBr
- pD2: 6.42
